Measurements reported in article PMC5876388, “The Notch inhibitor cowanin accelerates nicastrin degradation” (Scientific Reports, 2018).

System: HPB-ALL cells
Assay: Cytotoxicity test, AlamarBlue
Details: 10 μM, 72 h
Procedure: HPB-ALL cells (1 × 10^4 cells per well) were incubated in 96-well black plates at 37 °C for 72 h. Media also contained different concentrations of compound. After incubation, AlamarBlue was added 10 μL per well. After incubation for 4 h, using a fluorescence plate reader, fluorescence was measured and cell viability was determined. Data are presented as the mean with SD from three independent experiments. […] The effect on protein expression was analyzed by Western blotting. β-Actin was used as internal control. (D,E) Relative protein levels of NICD and HES1 analyzed by densitometry. Data are presented as the mean with SD from three independent experiments. *P < 0.05 is considered statistically significant. P values were analyzed by Student’s t test.
HPB-ALL cells (1 × 10^4 cells per well) were incubated in 96-well black plates in 100 μL of RPMI-1640 medium with 10% FBS, Streptomycin (100 μg/mL) and Penicillin (100 unit/mL). Media also contained different concentrations of compound. Cells were incubated at 37 °C for 72 h. After incubation, AlamarBlue (00–025, DAL1025; Thermo Fisher Scientific Inc., Waltham, USA) was added 10 μL per well. After incubation for 4 h, using a fluorescence plate reader (Thermo Fisher Scientific Inc., Waltham, USA), fluorescence was measured and cell viability was determined.

COc1c(O)cc2oc3cc(O)c(CC=C(C)C)c(O)c3c(=O)c2c1C/C=C(\C)CCC=C(C)C [Compound 2, cowanin]
viability of HPB-ALL cells: reduced
